This note sets out measurements from paper PMC3794980, “Identification of Conserved and HLA Promiscuous DENV3 T-Cell Epitopes” (PLoS Neglected Tropical Diseases, 2013).

One experiment addresses DRB4*0101 (Homo sapiens, UniProt P01903+P13762, G164S). The experiment is described as follows: biochemical. Type of experiment: binding. The settings on record: read-out: Binding Affinity (nM) DRB4*0101.
Experiment [1] deals with HLA transgenic mice (A02, A24, B07, DR2, DR3 and DR4). The experiment is described as follows: Immunogenicity screen in six HLA transgenic mice strains (summary). Type of experiment: in vivo. The settings on record: IFN-γ ELISPOT in six TgM strains; Negative = none.
The target of the next experiment is DRB1*0101 (Homo sapiens, UniProt P01903+P01911, A100R/D57E/F55L/F60I/F76Y/I96L/L162R/M171V/P40L/Q125E/R42F/V115G/Y59C). The experiment is described as follows: biochemical. It counts as binding.
A further experiment deals with DRB1*0701 (Homo sapiens, UniProt P01903+P01911, A100R/A102G/A103Q/D57E/D86V/E43K/F76Y/K127E/L162R/M171V/P40G/Q125H/Q99D/R33Q/R42Y/R54Q/S133A/S66F/T210M/V115G/Y107V/Y59L/Y89S). The experiment is described as follows: biochemical. Type of experiment: binding.
In the next experiment the target is DRB1*0901 (Homo sapiens, UniProt P01903+P01911, A100R/A103E/D57H/D86V/F55Y/F60I/F76Y/I96F/K127E/L162R/M171V/P40D/Q125H/Q99R/R33Q/R42F/S133A/S66N/T210M/V115G/W38K/Y107V/Y59G/Y89S). The experiment is described as follows: biochemical. It counts as binding.
For the next experiment, the target named is DRB1*1101 (Homo sapiens, UniProt P01903+P01911, A100R/A169T/A87E/I96F/K41T/L162R/M171V/P40S/Q125H/Q178H/Q39Y/Q99D/R42S/S66Y/T262R/V115G/W38E). The experiment is described as follows: biochemical. It counts as binding.
The target in the next experiment is DRB1*1302 (Homo sapiens, UniProt P01903+P01911, A100E/A169T/K41T/L162R/M171V/P40S/Q125H/Q178H/Q39Y/Q99D/R42S/S66N/T262R/V115G/W38E/Y61H). The experiment is described as follows: biochemical. It counts as binding.
Another experiment addresses DRB1*1501 (Homo sapiens, UniProt P01903+P01911). The experiment is described as follows: biochemical. Type of experiment: binding.
A further experiment concerns the target DRB1*0301 (Homo sapiens, UniProt P01903+P01911, A100K/A102G/A103R/A169T/F55Y/I96L/K41T/L162R/M171V/P40S/Q125H/Q178H/Q39Y/R42S/S66N/T106N/T262R/W38E/Y61H). The experiment is described as follows: biochemical. It counts as binding.
Another experiment deals with DRB1*0401 (Homo sapiens, UniProt P01903+P01911, A100K/A169T/F76Y/I96L/K127E/L162R/M171V/N62H/P40V/Q125Y/R42H/S133A/S149N/S66Y/V115G/V209L/W38E). The experiment is described as follows: biochemical. It counts as binding.
Another experiment deals with DRB1*0404 (Homo sapiens, UniProt P01903+P01911, A100R/A169T/F76Y/I96L/K127E/L162R/M171V/N62H/P40V/Q125Y/R42H/S133A/S149N/S66Y/V209L/W38E). The experiment is described as follows: biochemical. It counts as binding.
A further experiment deals with DRB1*0405 (Homo sapiens, UniProt P01903+P01911, A100R/A169T/D86S/F76Y/I96L/K127E/L162R/M171V/N62H/P40V/Q125Y/R42H/S133A/S149N/S66Y/V115G/V209L/W38E). The experiment is described as follows: biochemical. Type of experiment: binding.
The next experiment has as its target DRB1*0802 (Homo sapiens, UniProt P01903+P01911, A100R/A103L/A169T/F76Y/H45Y/I96F/K41T/L162R/M171V/P40S/Q125H/Q178H/Q39Y/Q99D/R218S/R42G/S66Y/V115G/W38E). The experiment is described as follows: biochemical. Type of experiment: binding.

pIC50: −log10 of the molar value. Where two headings read alike, the source gives them in different places.

Regarding `CC[C@H](C)[C@H](NC(=O)[C@H](Cc1ccc(O)cc1)NC(=O)CNC(=O)[C@H](CC(C)C)NC(=O)[C@H](CCCCN)NC(=O)[C@H](Cc1c[nH]cn1)NC(=O)[C@H](CC(C)C)NC(=O)CNC(=O)[C@H](CCC(=O)O)NC(=O)CNC(=O)[C@H](CCC(=O)O)NC(=O)[C@@H](NC(=O)CNC(=O)[C@H](CO)NC(=O)[C@H](Cc1ccc(O)cc1)NC(=O)[C@H](CO)NC(=O)[C@@H](N)CC(N)=O)C(C)C)C(=O)O` [NS5 501-517], on DRB4*0101, the IC50 was over 20000 nM.
Regarding “VHRQWFFDLPLPWTS [Env206–220, DENV3 Envelope 15-mer overlapping library peptide]”, the “TGM (HLA transgenic mice in which the peptide was immunogenic)” value (“TGM” for short) in [1] is “Negative/NDNegative/ND”.
For the compound “LTIMDLHPGSGKTRK [NS3_189–203, DENV3 NS3 15-mer overlapping library peptide]”, in experiment [1], the “TGM” value was “Negative”.
On the same count and under the same terms, next, “FFDLPLPWTSGATTE [Env211–225, DENV3 Envelope 15-mer overlapping library peptide]”: “Negative/NDNegative/ND”; “IVDLMCHATFTMRLL [NS3_257–271, DENV3 NS3 15-mer overlapping library peptide]”: “Negative/NDNegative/NDNegative/ND”; “GTSGSPIINREGKVV [NS3_133–147, DENV3 NS3 15-mer overlapping library peptide]”: “Negative/NDNegative/ND”.
On the same count and under the same terms, next, “TRVVAAEMEEALKGL [NS3_225–239, DENV3 NS3 15-mer overlapping library peptide]”: “Negative/NDNegative/NDNegative/ND”; “TGREIVDLMCHATFT [NS3_253–267, DENV3 NS3 15-mer overlapping library peptide]”: “Negative/NDNegative/NDNegative/ND”.
Turning to “DGEYRLKGESRKTFV [NS3_521–535, DENV3 NS3 15-mer overlapping library peptide]”, the “TGM” value in experiment [1] was “Negative/NDNegative/NDNegative/ND”.
Still for that read-out and setting: next, “SEGIKYTDRKWCFDG [NS3_553–547, DENV3 NS3 15-mer overlapping library peptide]”: “Negative/NDNegative/ND”.
What is called pIC50 is the IC50 on a negative log10 scale, so that one unit is a factor of ten. On to `CC[C@H](C)[C@H](NC(=O)[C@H](CC(=O)O)NC(=O)[C@@H](NC(=O)[C@@H](NC(=O)[C@@H](NC(=O)[C@@H](NC(=O)[C@@H](N)Cc1ccccc1)C(C)C)C(C)C)[C@@H](C)O)[C@@H](C)O)C(=O)N[C@@H](CO)C(=O)N[C@@H](CCC(=O)O)C(=O)N[C@@H](CCSC)C(=O)NCC(=O)N[C@@H](C)C(=O)N[C@@H](CC(N)=O)C(=O)N[C@@H](Cc1ccccc1)C(=O)N[C@@H](CCCCN)C(=O)O` [NS3 405-419], for which the pIC50 on DRB1*0101 was 5.71; at DRB1*0701, 5.44; on DRB1*0901, 4.93; against DRB1*1101, 5.53; against DRB1*1302 it was 5.75; against DRB1*1501, 5.87. For the same compound, the IC50 at DRB4*0101 is over 20000 nM.
In the case of “AAEMEEALKGLPIRY [NS3_229–243, DENV3 NS3 15-mer overlapping library peptide]”, in experiment [1], the “TGM” value was “Negative/NDNegative/NDNegative/ND”.
Regarding `CC(C)C[C@H](NC(=O)[C@H](CCCNC(=N)N)NC(=O)[C@H](CCCCN)NC(=O)CNC(=O)[C@H](CC(N)=O)NC(=O)[C@H](Cc1ccc(O)cc1)NC(=O)[C@@H](NC(=O)[C@H](CC(C)C)NC(=O)[C@@H](N)C(C)C)[C@@H](C)O)C(=O)N[C@@H](CCC(=O)O)C(=O)N1CCC[C@H]1C(=O)N[C@@H](CC(N)=O)C(=O)N[C@@H](Cc1c[nH]c2ccccc12)C(=O)N[C@@H](C)C(=O)N[C@@H](CO)C(=O)O` [NS3 57-71], the pIC50 is 6.05 against DRB1*0101; 5.76 against DRB1*0301; 5.35 at DRB1*0401; 5.13 against DRB1*0404; 4.97 against DRB1*0405; 5.72 against DRB1*0701. The pIC50 against DRB1*0901 is 5.38; on DRB1*1101 it was 5.64; on DRB1*1501, 6.71. Further, the IC50 on DRB1*0802 (read-out: Binding Affinity (nM) DRB1*0802) and on DRB4*0101 was over 20000 nM each time.
Turning to “KEGEKKKLRPRWLDA [NS3_585–599, DENV3 NS3 15-mer overlapping library peptide]”, the “TGM” value in [1] is “Negative”.
As to “KSEHTGREIVDLMCH [NS3_249–263, DENV3 NS3 15-mer overlapping library peptide]”, the “TGM” value in experiment [1] is given as “Negative/NDNegative/NDNegative/ND”.
Turning to “EIWTKEGEKKKLRPR [NS3_581–595, DENV3 NS3 15-mer overlapping library peptide]”, in experiment [1], the “TGM” value is “Negative”.
Take “ESRKTFVELMRRGDL [NS3_529–543, DENV3 NS3 15-mer overlapping library peptide]”: the “TGM” value in experiment [1] is “Negative/NDNegative/NDNegative/ND”.
With `CC(C)[C@H](NC(=O)[C@H](CCC(=O)O)NC(=O)[C@H](Cc1ccc(O)cc1)NC(=O)[C@H](CO)NC(=O)CNC(=O)[C@H](Cc1c[nH]cn1)NC(=O)[C@H](Cc1ccc(O)cc1)NC(=O)[C@H](C)NC(=O)[C@H](Cc1c[nH]c2ccccc12)NC(=O)[C@@H](NC(=O)[C@H](CCCCN)NC(=O)[C@H](Cc1ccc(O)cc1)NC(=O)[C@@H]1CCCN1C(=O)[C@H](CC(N)=O)NC(=O)[C@H](CCC(=O)O)NC(=O)[C@@H](N)CC(=O)O)[C@@H](C)O)C(=O)N[C@@H](CCCCN)C(=O)O` [NS5 295-311], the pIC50 against DRB1*0802 was 5.92; at DRB1*1101, 5.56. Moreover, on DRB4*0101, the IC50 is over 20000 nM.
As to “KVVGLYGNGVVTKNG [NS3_145–159, DENV3 NS3 15-mer overlapping library peptide]”, the “TGM” value in experiment [1] is “Negative”.
Regarding `CC(C)[C@H](NC(=O)[C@H](CCC(=O)O)NC(=O)[C@H](Cc1ccc(O)cc1)NC(=O)[C@H](CO)NC(=O)CNC(=O)[C@H](Cc1c[nH]cn1)NC(=O)[C@H](Cc1ccc(O)cc1)NC(=O)[C@H](C)NC(=O)[C@H](Cc1c[nH]c2ccccc12)NC(=O)[C@@H](N)[C@@H](C)O)C(=O)N[C@@H](CCCCN)C(=O)N[C@@H](C)C(=O)N[C@H](C(=O)NCC(=O)N[C@@H](CO)C(=O)N[C@@H](C)C(=O)O)[C@@H](C)O` [NS5 301-316], the pIC50 against DRB1*0301 is 5.89; against DRB1*0405 it was 5.50; at DRB1*0802, 5.93; against DRB1*1302, 5.44. Moreover, the IC50 on DRB4*0101 was over 20000 nM.
With `CC[C@H](C)[C@H](NC(=O)[C@H](CCC(=O)O)NC(=O)CNC(=O)[C@@H](NC(=O)[C@@H](NC(=O)[C@@H](NC(=O)[C@H](CCC(N)=O)NC(=O)[C@H](Cc1ccccc1)NC(=O)[C@@H](NC(=O)CNC(=O)[C@@H]1CCCN1C(=O)[C@H](CCSC)NC(=O)[C@@H](NC(=O)[C@H](CCC(N)=O)NC(=O)[C@@H](N)Cc1ccccc1)[C@@H](C)O)[C@@H](C)O)[C@@H](C)O)[C@@H](C)O)[C@@H](C)O)C(=O)O` [NS3 109-123], the IC50 at DRB4*0101 is over 20000 nM.
Turning to “KYTDRKWCFDGERNN [NS3_557–571, DENV3 NS3 15-mer overlapping library peptide]”, the “TGM” value in experiment [1] is “Negative/NDNegative/ND”.
As for “NMDVEIWTKEGEKKK [NS3_577–591, DENV3 NS3 15-mer overlapping library peptide]”, the “TGM” value in [1] was “Negative”.
